Measured values: patent US20050064383A1, “Methods and apparatus for producing gender enriched sperm” (priority 2000, published 2005)

Assay: Buffer solubility by HPLC
Settings: TES Buffer pH 6.98; maximum measurable 90 micromolar
Protocol: One microliter (μL) of the stock solution was then added to 110 μL of aqueous buffer solution placed in an HPLC (high performance liquid chromatography) vial and mixed by inverting a number of times. The samples were allowed to stand for 30 minutes and then centrifuged for 30 minutes. The centrifugation is required to deposit suspended material that could interfere with the analysis to the side of the vial. The solutions were then analyzed by HPLC by sampling the solution without touching the vial bottom or sides. Shown below are the measured quantities remaining in solution in the various buffers.

## [2-[(3,5-dimethyl-1H-pyrrol-2-yl-kN)methylene]-N(N-(N-(8-(p-[5-[5-(4-methyl-1-piperazinyl)-2-benzimidazolyl]-2-benzimidazolyl]phenoxy)octan-1-oyl)-3-aminopropyl)hexan-6-amide-2H-pyrrole-5-propanamidato-kN1]difluoroboron [Bisbenzimide-BODIPY conjugate]
  quantity remaining in solution (solubility): 38 µM
